Data from ChEMBL document CHEMBL2157975 (Bioorg Med Chem Lett, 2012).

Target: Type-1 angiotensin II receptor (Homo sapiens, UniProt P30556)
Assay: Inhibition of AT1 receptor

Cc1ccnc(SCc2cc(=O)c(OC(=O)c3ccc(Cl)c([N+](=O)[O-])c3)co2)n1
IC50: > 79 µM
